Test results as given in ChEMBL document CHEMBL1152751, “2,5-Disubstituted tetrahydrofurans as selective serotonin re-uptake inhibitors” (Bioorg Med Chem, 2009).

The chains behind the UniProt entries cited, without tags or fusion partners.
UniProt P23975, whole entry: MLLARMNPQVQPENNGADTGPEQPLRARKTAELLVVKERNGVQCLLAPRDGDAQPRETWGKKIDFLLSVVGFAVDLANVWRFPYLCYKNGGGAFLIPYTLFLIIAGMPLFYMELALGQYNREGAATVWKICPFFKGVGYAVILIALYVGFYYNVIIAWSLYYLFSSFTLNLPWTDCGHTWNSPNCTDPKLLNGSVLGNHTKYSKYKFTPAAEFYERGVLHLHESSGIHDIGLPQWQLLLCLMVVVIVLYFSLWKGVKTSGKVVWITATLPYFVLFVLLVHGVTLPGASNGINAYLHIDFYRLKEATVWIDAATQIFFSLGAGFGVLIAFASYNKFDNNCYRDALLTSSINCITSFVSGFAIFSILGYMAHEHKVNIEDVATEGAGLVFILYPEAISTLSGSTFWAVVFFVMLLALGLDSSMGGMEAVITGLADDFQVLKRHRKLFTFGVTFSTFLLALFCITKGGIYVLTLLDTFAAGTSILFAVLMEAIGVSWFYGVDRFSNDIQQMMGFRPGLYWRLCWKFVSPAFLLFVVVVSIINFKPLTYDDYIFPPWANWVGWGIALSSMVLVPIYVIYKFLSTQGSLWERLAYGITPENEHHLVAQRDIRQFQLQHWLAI

Tests used:
[1] = biological target: T1, Sodium-dependent noradrenaline transporter (Homo sapiens, UniProt P23975); assay: biochemical; type: cell-based, HEK293
[2] = biological target: T1, Sodium-dependent noradrenaline transporter; assay: Inhibition of [3H]norepinephrine reuptake at human NET expressed in HEK cells; type: cell-based, HEK293
Liver microsomes = assay: Metabolic stability assessed as half life in rat liver microsomes; type: ADME, Microsome

Structure (SMILES)	Ki [1] [µM]	IC50 [2] [µM]	t1/2 (Liver microsomes) [h]
COc1ccc(F)cc1CCC[C@@H]1CC[C@H](CN)O1 (relative stereo)	20.2	2.86	
COc1ccc(F)cc1CCC[C@H]1CC[C@H](CN)O1 (relative stereo)	8.54	2.93	
COc1ccc(F)cc1[C@@H]1CC[C@H](CCN)O1 (relative stereo)	48.9	> 10	
COc1ccc(F)cc1[C@H]1CC[C@H](CCN)O1	27.5	> 10	
COc1ccc(F)cc1CCC1CCC(CCN)O1 (centres undefined)			1.77
